Values quoted from earlier work, collected in patent publication US20170143824A1 (Teva Pharmaceutical Industries, Ltd., priority 2013, published 2017).

Key:
patients with RRMS = settings: registration trials, compared with placebo
patients with MS = settings: at one year

Molecule	reduction of relapse rate (patients with RRMS)	number of new and newly enlarged T2 lesions on MRI scans (patients with MS)
Avonex: IFN beta-1a, FDA-approved drug for RRMS (protein, UniProt P01574 22-187, looked up) Interferon beta: MSYNLLGFLQRSSNFQCQKLLWQLNGRLEYCLKDRMNFDIPEEIKQLQQFQKEDAALTIYEMLQNIFAIFRQDSSSTGWNETIVENLLANVYHQINHLKTVLEEKLEKEDFTRGKLMSSLHLKRYYGRILHYLKAKEYSHCAWTIVRVEILRNFYFINRLTGYLRN	about one third	2.6
Rebif: IFN beta-1a, FDA-approved drug for RRMS (protein, UniProt P01574 22-187, looked up, interferon beta-1a, IFN beta-1a, FDA-approved drug for RRMS) Interferon beta: MSYNLLGFLQRSSNFQCQKLLWQLNGRLEYCLKDRMNFDIPEEIKQLQQFQKEDAALTIYEMLQNIFAIFRQDSSSTGWNETIVENLLANVYHQINHLKTVLEEKLEKEDFTRGKLMSSLHLKRYYGRILHYLKAKEYSHCAWTIVRVEILRNFYFINRLTGYLRN	about one third	
